Values quoted from earlier work, collected in PMC6829319.

Protein sequences, listed by entry. Tags and fused reporters are not part of them. Lines headed by an entry give the natural chain unless they say otherwise; changes in a name come on top. Residues count along the entry.
UniProt P0A9D4: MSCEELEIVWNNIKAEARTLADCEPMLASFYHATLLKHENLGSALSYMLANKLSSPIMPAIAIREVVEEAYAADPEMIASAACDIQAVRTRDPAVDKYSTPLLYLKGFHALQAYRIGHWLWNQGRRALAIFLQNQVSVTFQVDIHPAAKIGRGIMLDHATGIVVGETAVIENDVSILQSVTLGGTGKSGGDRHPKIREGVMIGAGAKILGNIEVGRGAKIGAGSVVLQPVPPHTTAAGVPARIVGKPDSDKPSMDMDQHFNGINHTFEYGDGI
UniProt P0ABK5, 2-323: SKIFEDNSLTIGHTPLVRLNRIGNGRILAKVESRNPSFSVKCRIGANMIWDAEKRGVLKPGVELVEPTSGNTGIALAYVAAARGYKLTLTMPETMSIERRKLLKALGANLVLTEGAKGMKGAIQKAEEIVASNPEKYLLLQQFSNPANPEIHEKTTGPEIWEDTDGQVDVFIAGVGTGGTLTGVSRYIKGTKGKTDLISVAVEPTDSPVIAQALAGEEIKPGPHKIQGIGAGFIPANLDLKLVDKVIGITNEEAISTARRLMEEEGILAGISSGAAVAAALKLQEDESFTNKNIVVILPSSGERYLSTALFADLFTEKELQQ

Biological target: CysE (serine acetyltransferase) (Escherichia coli) (UniProt P0A9D4)

CysK (from UniProt P0ABK5)
Kd: 5 nM
